Screening data (PubChem BioAssay)
Rango dissoc inh: inhibitors of RanGTP-induced Rango-importin beta complex dissociation; Biochemical FRET Rango-importin beta, RanGTP-induced dissociation; O95149+P62826; hit rate 0.071% among 340,000; Potency, µM (series often up to 46.1 µM), for inactives: at the top dose activity change, negative = inhibition; further: % of control where 0% means no effect; nearly all actives have a fitted effect of over 45% in size
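Two FRET readings bracket the reaction: one 5 min after compound meets Rango–importin beta, another 45 min after RanGTP-RCC1 (0.6 uM Ran, 0.2 uM RCC1, 2 mM GTP) is added. Only the second defines inhibition.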
S-ASM inh: human S-ASM enzyme inhibition | P17405 | placental ASM, HMU-PC fluorogenic substrate, 60 min | Potency, µM (series often up to 57.5 µM), inactives show at the top dose activity change, negative = inhibition, hits mostly inhibitors | hit rate 0.006% among 340,000; active means well fitted inhibition curve with a large enough effect; inconclusive means small, poorly fitted or top-dose-only effect; inactive means no such curve, though single readings can be large or run the other way
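Steps: dispense placental human ASM, pin compound, wait 10 min at room temperature, add HMU-PC0 substrate at 9 uM final, incubate 60 min at 37 °C, add stop solution raising pH to 10, read fluorescence.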
Rango-impB inh: inhibitors of Rango-importin beta complex formation; Q14974; Rango CFP/YFP FRET sensor + importin beta, 45 min; Potency, µM (top dose mostly 92.2 µM), inactives show at the top dose inhibition of complex formation; hit rate 0.031% among 340,000;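 further: 0% = DMSO wells and 100% = buffer wells lacking importin beta; nearly all actives have a fitted effect of over 15% in size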
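FRET biosensor (snurportin 1 IBB flanked by EYFP and cerulean), 50 nM, with compound 5 min, then 0.125 microM importin beta in PBS, 1 mM DTT, 0.02% Tween-20, 0.1% BSA. CFP/YFP ratio read after 45 min at room temperature; pre-read flags interference.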
gsp ag: activates gsp, the McCune-Albright syndrome mutation | gsp mutant cells, cAMP HTRF, 30 min | Potency, µM (doses to about 76.9 µM), without a hit: top-dose activation (cAMP increase), most hits filed as activators | hit rate 0.13% among 340,000; active means well fitted activation curve with a large enough effect; inconclusive means small, poorly fitted or top-dose-only effect, or another doubt; inactive means no such curve, though single readings can be large or run the other way; cell line not stated here;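 further: phosphodiesterase inhibitor Ro 20-1724 added with compounds to block cAMP breakdown; nearly all actives have a fitted effect of over 60% in size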
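Cells stably selected in G418 were plated at 2000/well, grown 16-24 hr, then given compounds in DMSO with the PDE inhibitor […] (300 uM solution added) for 30 min at 37C; cAMP was read by HTRF.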
gsp antag: antagonists of gsp mutant (McCune-Albright syndrome); gsp-mutant cells, cAMP HTRF, 30 min; Potency, µM (highest dose often 76.9 µM), for the others: top-dose activity change, negative = inhibition, actives largely listed as inhibitors; hit rate 0.4% among 340,000; calls by dose curve; cell line not stated here;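 further: intracellular cAMP measured with PDE inhibitor Ro 20-1724 present during compound exposure; on the % scale 0 is the no-effect control and ±100 the full control effect; nearly all actives have a fitted effect of over 65% in size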
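Cells in G418 medium, seeded 16-24 h, 37C; buffer exchange to DPBS + 1 mM CaCl2, 0.5 mM MgCl2, 0.05% BSA; cpds in DMSO + […] (300 uM stock), 30 min 37C; HTRF cAMP detection.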
Active calls of the source: *; i = inactive; ? = inconclusive; / = no result; [ ] = another dose, or the depositor's remark. Hits are enriched below; roughly 0.67% of the tested compounds scored in any of these assays. Unless noted, the call rests on the fitted dose curve. Potency means the concentration at half of the fitted maximal effect.

nr	Compound	Rango dissoc inh	S-ASM inh	Rango-impB inh
1	O=c1oc2cc(O)c(Cl)cc2c2ccccc12	?	-3.5%	?
2	COc1ccc2c(c1)oc(=O)c1ccccc12	-0.2%	6.9%	0.2%
3	COc1ccccc1NC(=O)Cn1nnc(-c2ccccc2NC(=O)c2cc3ccccc3oc2=O)n1	11.2%	2.6%	-2.7%
4	Cc1cc(C(=O)CN2C(=O)C(=O)N(CC(C)C)C2=O)c(C)n1C1CC1	19.8%	-0.3%	0.4%
5	CN(CC(=O)Nc1ccc(F)cc1)C(=O)COC(=O)c1cccc(N(C)C)c1	-1.1%	30.1%	0.0%
6	Cc1cc(OCC(=O)NCC2CCC(C(=O)O)CC2)c2c(C)c(C)c(=O)oc2c1 (stereo not drawn)	8.5%	3.4%	4.2%
7	CCOC(=O)c1ccc(-c2ccc3oc(-c4ccsc4)cc(=O)c3c2)cc1F	-10.2%	0.0%	-0.1%
8	COc1cccc(CNC(=O)COC(=O)/C(C#N)=C/c2ccc(N(C)C)cc2)c1	?	-5.2%	?
9	COc1ccc(/C=C(\C#N)C(=O)OCC(=O)NCc2ccccc2)cc1	7.0%	70.8%	-1.6%
10	O=c1c2ccccc2ncn1-c1ccc([N+](=O)[O-])cc1Cl	-14.2%	1.9%	-2.3%

nr	gsp ag	gsp antag
1	2.24µM*	-2.5%
2	-46.8%	0.1%
3	?	-13.0%
4	19.6%	0.8%
5	25.1µM*	-4.0%
6	/	-1.2%
7	/	7.08µM*
8	25.1µM*	11.3%
9	18.1%	6.6%
10	6.8%[15.4 µM]	-0.2%

Full records as entered above. Values in the order: Rango dissoc inh	S-ASM inh	Rango-impB inh	gsp ag	gsp antag
Shown for CCOC(=O)c1ccc(-c2ccc3oc(-c4ccsc4)cc(=O)c3c2)cc1F : -10.2%	0.0%	-0.1%	/	7.08µM*
Shown for Cc1cc(C(=O)CN2C(=O)C(=O)N(CC(C)C)C2=O)c(C)n1C1CC1 : 19.8%	-0.3%	0.4%	19.6%	0.8%
Shown for O=c1c2ccccc2ncn1-c1ccc([N+](=O)[O-])cc1Cl : -14.2%	1.9%	-2.3%	6.8%[15.4 µM]	-0.2%

The list continues:
nr	Compound	Rango dissoc inh	S-ASM inh	Rango-impB inh
11	CCOC(=O)N1CCN(C(=O)c2cn(C)c3ccc(S(=O)(=O)N(C)C4CCCCC4)cc3c2=O)CC1	0.0%	-0.3%	-0.6%
12	O=C(Nc1ccccc1)Nc1cc(OCC(F)(F)F)cc(OCC(F)(F)F)c1	0.3%	-25.2%	0.7%
13	O=C(Nc1ccccc1)Nc1cc(Cl)cc(Cl)c1	15.2%	-9.2%	-1.5%
14	NC(N)=Nc1nc2ccc(Cl)cc2c(=O)[nH]1	3.3%	0.8%	0.8%
15	COc1cc(/C=C/C(=O)OCC(=O)Nc2cc(C(F)(F)F)ccc2N2CCOCC2)ccc1O	-14.1%	-1.6%	?
16	COc1ccc(NC(=O)N2CCC(c3ccccc3)C2)c(OC)c1 (stereo not drawn)	0.4%	1.5%	0.0%
17	Cc1ccn2c(-c3csc(NCc4ccccc4)n3)c(C)nc2c1	-9.0%	4.5%	0.3%
18	COc1cccc(CN2CC(C(=O)NCc3cccc(Cl)c3)CCC2=O)c1 (stereo not drawn)	7.0%	3.1%	-2.9%
19	COc1cccc(CN2CC(C(=O)NCc3cccc(N4CCCC4)c3)CCC2=O)c1 (stereo not drawn)	3.2%	3.3%	7.1%
20	CCOCCCNC(=O)c1ccc2c(c1)ncn2-c1cccc(C)c1	8.1%	-1.9%	-0.1%

nr	gsp ag	gsp antag
11	18.6%	-0.8%
12	-2.8%[15.4 µM]	31.6µM*
13	0.0%	?
14	16.3%	9.2%
15	3.5%	2.4%
16	-2.3%	50.1µM*
17	-39.8%	39.8µM*
18	?	17.2%
19	-44.4%	3.16µM*
20	0.0%	-6.0%

nr	Compound	Rango dissoc inh	S-ASM inh	Rango-impB inh
21	O=C(O)CCC(=O)N1N=C(c2ccccc2)CC1c1ccc(Br)cc1 (stereo not drawn)	5.6%	0.4%	0.3%
22	O=C(O)CCC(=O)N1N=C(c2ccc(Br)cc2)CC1c1ccc(Br)cc1 (stereo not drawn)	-2.7%	-3.8%	-0.4%
23	COc1ccc(NC(=O)CN(C)S(=O)(=O)c2cnc[nH]2)cc1Cl	6.5%	2.1%	0.7%
24	CNS(=O)(=O)c1ccc(OC)c(-c2nnc3c4ccccc4c(C)nn23)c1	12.4%	-2.6%	1.9%
25	COc1ccc(S(=O)(=O)NC(C)(C)C)cc1-c1nnc2c3ccccc3c(C)nn12	-11.8%	-2.7%	1.7%
26	O=C(O)c1ccc(Nc2cc(Cl)c3nonc3c2[N+](=O)[O-])cc1	-4.8%	-0.4%	0.8%
27	O=[N+]([O-])c1c(Nc2cccc(O)c2)cc(Cl)c2nonc12	0.8%	-2.7%	-3.6%
28	COc1ccc(C2=NCC(CSc3nnc(-c4ccc5c(c4)OCO5)o3)S2)cc1 (stereo not drawn)	-2.1%	-7.1%	-0.3%
29	Cc1ccc(C)c(N2CCN(C(=O)CCNC(=O)Cn3ccc4ccccc4c3=O)CC2)c1	13.1%	2.3%	-3.3%
30	Cc1ccc(Cl)cc1N1CCN(C(=O)Cn2ccc3ccccc3c2=O)CC1	-0.5%	-8.5%	0.8%

nr	gsp ag	gsp antag
21	5.8%[15.4 µM]	39.8µM*
22	7.9%	?
23	20.8%	2.8%
24	15.8µM*	12.1%
25	?	22.2%
26	24.1%[15.4 µM]	-1.0%
27	0.9%	35.5µM*
28	?	28.2µM*
29	?	-16.5%
30	-6.2%	25.1µM*

nr	Compound	Rango dissoc inh	S-ASM inh	Rango-impB inh
31	CC(=O)Nc1ccc(C2NC(=O)CCC2[N+](=O)[O-])cc1 (stereo not drawn)	-3.0%	5.2%	-0.6%
32	N=c1c(C(=O)NCc2ccc3c(c2)OCO3)cc2c(=O)n3ccccc3nc2n1CC1CCCO1 (stereo not drawn)	?	121.5%	?
33	N=c1c(C(=O)NCc2ccc(F)cc2)cc2c(=O)n3ccccc3nc2n1CC1CCCO1 (stereo not drawn)	?	i	?
34	CN(C(=O)CC1C(=O)NCCN1Cc1ccc(F)c(F)c1)C1CCOCC1 (stereo not drawn)	2.5%	19.1%	-3.3%
35	COC(=O)c1ccccc1-n1c(CCC(=O)O)ccc1-c1ccc(F)cc1	-15.3%	12.0%	2.7%
36	COc1ccc(-n2c(CCC(=O)O)ccc2-c2ccc(F)cc2)c(OC)c1	13.3%	11.7%	1.1%
37	COc1ccc(C(=O)N/N=C(\C)CC(=O)Nc2cccc(C(F)(F)F)c2)cc1	0.0%	-8.7%	-2.7%
38	COc1cc(NC(=O)c2cccs2)c(OC)cc1NC(=O)c1cccs1	18.4µM*	21.9%	?
39	COc1ccc(C(CNC(=O)c2oc3ccc(Br)cc3c2C)N2CCCCC2)cc1 (stereo not drawn)	1.46µM*	-6.7%	-1.7%
40	CCC1CCc2sc(C(=O)NCC(c3ccc(OC)cc3)N3CCCC3)cc2C1 (stereo not drawn)	29.9%	-0.2%	58µM*

nr	gsp ag	gsp antag
31	16.7%	5.3%
32	28.2µM*	-1.9%
33	?	3.7%
34	1.3%	-0.1%
35	-84.0%	-15.4%
36	-40.4%	35.5µM*
37	-0.2%[15.4 µM]	-3.7%
38	-50.1%	-17.7%
39	11.5%[15.4 µM]	2.2%
40	-6.6%	9.1%

nr	Compound	Rango dissoc inh	S-ASM inh	Rango-impB inh
41	COc1ccc(C(CNC(=O)c2cccc(N(C)C)c2)N2CCCC2)cc1 (stereo not drawn)	-1.1%	11.0%	-2.7%
42	COc1ccc(C(CNC(=O)c2oc3cc(Br)ccc3c2C)N2CCCCC2)cc1 (stereo not drawn)	11.3%	-8.7%	-0.5%
43	CC(=O)Oc1cccc(N2C(=O)c3cccc4c([N+](=O)[O-])ccc(c34)C2=O)c1	1.84µM*[inhibitor]	0.0%	?
44	COc1ccc2cc(C(=O)C3CCCN(C(=O)CCc4ccccn4)C3)ccc2c1 (stereo not drawn)	-0.4%	17.5%	-0.8%
45	Cc1cc(OCC(=O)Nc2ccc3oc(-c4ccncc4)nc3c2)ccc1Cl	-3.5%	6.8%	-1.0%

nr	gsp ag	gsp antag
41	-20.6%	-4.9%
42	-17.2%	5.7%
43	-20.1%	1.2%
44	-12.3%[15.4 µM]	4.47µM*
45	2.5%	50.1µM*
